By UniProt entry, the sequences of proteins in these tests, tags left out. Residues count along the entry.
UniProt P53350, 367-603 limits assumed: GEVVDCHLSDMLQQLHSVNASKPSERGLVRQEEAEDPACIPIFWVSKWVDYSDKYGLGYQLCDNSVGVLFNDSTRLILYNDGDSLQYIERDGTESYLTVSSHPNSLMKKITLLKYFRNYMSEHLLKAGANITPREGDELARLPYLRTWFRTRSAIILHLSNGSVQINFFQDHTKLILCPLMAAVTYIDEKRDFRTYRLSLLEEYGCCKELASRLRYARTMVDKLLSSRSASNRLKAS

According to patent US11597737B2, “Small molecule inhibitors selective for polo-like kinase proteins” (UNIVERSITY OF SOUTH CAROLINA, priority 2016, dated 2023):

Experiments:
PLK1 PBD (367-603) = PLK1 PBD (367-603) (Homo sapiens, UniProt P53350); test: Fluorescence polarization assay, PLK1 PBD; assay type: binding
[1] = test system: HeLa cervical cancer cells; test: Cell viability assay (MTT), HeLa; assay type: cell-based; conditions: read-out: HeLa, 72 hours

Compound | fold loss in binding (PLK1 PBD (367-603); relative to SCCP ID No: 5953) | fold increase in PLK1 binding (PLK1 PBD (367-603); relative to SCCP ID No: 5961) | IC50 [1] | IC50 (PLK1 PBD (367-603); read-out: PLK1 IC50, PLK1 PBD binding, fluorescence polarization)
CCCCCCCCc1ccc(CNc2cc(C)ccc2C(=O)O)cc1 | 2 fold | more than 27 fold | – | –
CCCCCCCCc1ccc(C(=O)Nc2cc(C)ccc2C(=O)O)cc1 | – | – | 17.9 µM | 3.99 µM
